Laboratory results taken from patent US9428476B2, “S-imino-S-oxo-iminothiadiazine compounds as BACE inhibitors, compositions, and their use” (Merck Sharp & Dohme Corp., priority 2013, dated 2016).

Amino acid sequences for entries named in this document (tags omitted). Residues count along the entry.
UniProt P56817, 75-416 limits assumed: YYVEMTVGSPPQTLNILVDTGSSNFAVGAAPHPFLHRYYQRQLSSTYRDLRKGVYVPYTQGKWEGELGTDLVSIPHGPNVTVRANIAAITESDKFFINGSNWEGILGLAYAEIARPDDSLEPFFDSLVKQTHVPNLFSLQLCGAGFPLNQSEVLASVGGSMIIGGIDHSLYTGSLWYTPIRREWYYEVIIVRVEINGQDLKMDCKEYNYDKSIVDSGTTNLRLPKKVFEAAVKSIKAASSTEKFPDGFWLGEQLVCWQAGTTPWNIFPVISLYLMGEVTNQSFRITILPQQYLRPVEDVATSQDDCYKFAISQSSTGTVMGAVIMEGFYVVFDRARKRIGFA
UniProt Q9Y5Z0, 63-473 limits assumed: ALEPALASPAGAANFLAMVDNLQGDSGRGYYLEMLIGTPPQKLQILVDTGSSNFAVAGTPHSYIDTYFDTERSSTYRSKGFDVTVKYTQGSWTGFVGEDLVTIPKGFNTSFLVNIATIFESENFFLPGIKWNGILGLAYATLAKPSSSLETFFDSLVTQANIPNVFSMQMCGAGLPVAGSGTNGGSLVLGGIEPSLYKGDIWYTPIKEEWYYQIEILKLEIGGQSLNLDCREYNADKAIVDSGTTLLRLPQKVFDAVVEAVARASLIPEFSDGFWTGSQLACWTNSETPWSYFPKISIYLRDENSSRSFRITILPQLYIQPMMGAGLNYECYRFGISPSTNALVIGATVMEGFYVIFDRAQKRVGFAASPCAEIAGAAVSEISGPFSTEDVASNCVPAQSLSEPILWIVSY

Experiments:
[1] = biological target: soluble human BACE1 catalytic domain (Homo sapiens (Human), UniProt P56817); test: BACE1 HTRF FRET Assay; settings: read-out: BACE1 Ki; Ki calculated from IC50 using the Cheng-Prusoff equation; QSY7-APPswe-Eu substrate, pH 5.0
Text: Na^+-Acetate pH 5.0; 1% Brij-35; Glycerol; Dimethyl Sulfoxide (DMSO); Recombinant human soluble BACE1 catalytic domain (>95% pure); APP Swedish mutant peptide substrate (QSY7-APP^swe-Eu): QSY7-EISEVNLDAEFC-Europium-amide.
A homogeneous time-resolved FRET assay can be used to determine IC50 values for inhibitors of the soluble human BACE1 catalytic domain. This assay monitors the increase of 620 nm fluorescence that resulted from BACE1 cleavage of an APPswedish APP^swe mutant peptide FRET substrate (QSY7-EISEVNLDAEFC-Europium-amide). This substrate contains an N-terminal QSY7 moiety that serves as a quencher of the C-terminal Europium fluorophore (620 nm Em). In the absence of enzyme activity, 620 nm fluorescence is low in the assay and increased linearly over 3 hours in the presence of uninhibited BACE1 enzyme Inhibition of BACE1 cleavage of the QSY7-APP^swe-Eu substrate by inhibitors is manifested as a suppression of 620 nm fluorescence.
Varying concentrations of inhibitors at 3× the final desired concentration in a volume of 10 ul are preincubated with purified human BACE1 catalytic domain (3 nM in 10 μl) for 30 minutes at 30° C. in reaction buffer containing 20 mM Na-Acetate pH 5.0, 10% glycerol, 0.1% Brij-35 and 7.5% DSMO. Reactions are initiated by addition of 10 μl of 600 nM QSY7-APP^swe-Eu substrate (200 nM final) to give a final reaction volume of 30 μl in a 384 well Nunc HTRF plate. The reactions are incubated at 30° C. for 1.5 hours. The 620 nm fluorescence is then read on a Rubystar HTRF plate reader (BMG Labtechnologies) using a 50 millisecond delay followed by a 400 millisecond acquisition time window Inhibitor IC50 values are derived from non-linear regression analysis of concentration response curves. Ki values are then calculated from IC50 values using the Cheng-Prusoff equation using a previously determined […] of 8 μM for the QSY7-APP^swe-Eu substrate at BACE1.

[2] = biological target: purified human autoBACE-2 (Homo sapiens (Human), UniProt Q9Y5Z0); test: BACE-2 Assay (BACE-HTRF assay); settings: read-out: BACE2 Ki; Ki calculated from IC50 using the Cheng-Prusoff equation; QSY7-EISEVNLDAEFC-Eu-amide substrate, pH 5.0
Description: Inhibitor IC50s at purified human autoBACE-2 are determined in a time-resolved endpoint proteolysis assay that measures hydrolysis of the QSY7-EISEVNLDAEFC-Eu-amide FRET peptide substrate (BACE-HTRF assay). BACE-mediated hydrolysis of this peptide results in an increase in relative fluorescence (RFU) at 620 nm after excitation with 320 nm light Inhibitor compounds, prepared at 3× the desired final concentration in 1×BACE assay buffer (20 mM sodium acetate pH 5.0, 10% glycerol, 0.1% Brij-35) supplemented with 7.5% DMSO are pre-incubated with an equal volume of autoBACE-2 enzyme diluted in 1×BACE assay buffer (final enzyme concentration 1 nM) in black 384-well NUNC plates for 30 minutes at 30° C. The assay is initiated by addition of an equal volume of the QSY7-EISEVNLDAEFC-Eu-amide substrate (200 nM final concentration, Km=8 μM […] for autoBACE-2) prepared in 1×BACE assay buffer supplemented with 7.5% DMSO and incubated for 90 minutes at 30° C. DMSO is present at 5% final concentration in the assay. Following laser excitation of sample wells at 320 nm, the fluorescence signal at 620 nm is collected for 400 ms following a 50 μs delay on a RUBYstar HTRF plate reader (BMG Labtechnologies). Raw RFU data is normalized to maximum (1.0 nM BACE/DMSO) and minimum (no enzyme/DMSO) RFU values. IC50, are determined by nonlinear regression analysis (sigmoidal dose response, variable slope) of percent inhibition data with minimum and maximum values set to 0 and 100 percent respectively. Similar IC50s are obtained when using raw RFU data. The Ki values are calculated from the IC50 using the Cheng-Prusoff equation.

| Structure (SMILES) | Ki [1] [nM] | Ki [2] [nM] |
| --- | --- | --- |
| CN=[S@]1(=O)C[C@@](C)(c2cc(NC(=O)c3ccc(OC)cn3)ccc2F)NC(=N)N1C | 3 |  |
| CN=[S@]1(=O)C[C@@](C)(c2cc(NC(=O)c3ccc(Cl)cn3)ccc2F)NC(=N)N1C | 1 | 1 |
| CN=[S@]1(=O)C[C@@](C)(c2cc(NC(=O)c3ccc(F)cn3)ccc2F)NC(=N)N1C | 2 | 1 |
| CN=[S@@]1(=O)C[C@@](C)(c2cc(NC(=O)COC)ccc2F)NC(=N)N1C | 189 | 23 |
| CN=[S@@]1(=O)C[C@@](C)(c2cc(NC(=O)c3ccc(Cl)cn3)ccc2F)NC(=N)N1C | 5 | 1 |
| CN=[S@@]1(=O)C[C@@](C)(c2cc(NC(=O)c3ccc(OC)cn3)ccc2F)NC(=N)N1C | 19 | 12 |
| CN=[S@@]1(=O)C[C@@](C)(c2cc(NC(=O)c3ccc(F)cn3)ccc2F)NC(=N)N1C | 10 | 2 |
